Here are results for one molecule from US7601489B2, “Manganese ion regulation of reverse transcriptase activity and methods of modulating same” (The Johns Hopkins University, priority 2002, dated 2009).

Experiment [1] addresses T1, wild-type Ty1 RT (Saccharomyces cerevisiae, UniProt P47098).
T1 sequence (P47098 1218-1755 limits assumed): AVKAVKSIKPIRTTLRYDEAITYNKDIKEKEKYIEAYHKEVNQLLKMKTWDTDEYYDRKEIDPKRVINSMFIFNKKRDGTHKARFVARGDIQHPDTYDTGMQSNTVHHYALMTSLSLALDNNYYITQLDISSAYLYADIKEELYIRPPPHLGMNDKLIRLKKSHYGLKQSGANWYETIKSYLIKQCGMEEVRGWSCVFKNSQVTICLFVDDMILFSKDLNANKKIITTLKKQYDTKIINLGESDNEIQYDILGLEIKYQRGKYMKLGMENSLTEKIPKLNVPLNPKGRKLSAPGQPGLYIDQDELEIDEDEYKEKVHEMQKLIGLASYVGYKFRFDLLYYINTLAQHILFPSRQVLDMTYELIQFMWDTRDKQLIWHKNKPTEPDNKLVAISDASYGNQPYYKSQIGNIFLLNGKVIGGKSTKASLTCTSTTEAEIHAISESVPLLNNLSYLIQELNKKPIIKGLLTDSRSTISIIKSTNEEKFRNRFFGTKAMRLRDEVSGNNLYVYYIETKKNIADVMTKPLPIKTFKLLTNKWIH
As to conditions: wild type Ty1 RT; free divalent cation concentrations less than 6 mM. The procedure: (§1) VLP isolation and analysis. Yeast cells harboring pGTy1-H3-mhis3AI were grown in 2% galactose at 22° C. for approximately 24 hr. Cell pellets from these 0.5 L cultures were resuspended in 5 ml buffer B (Eichinger and Boeke, Cell 54: 955-966, 1988, which is incorporated herein by reference) and VLPs were isolated. […] Reactions were set up on ice, carried out for 1 hr at 22° C. and kept on ice while being spotted onto DE81 anion-exchange paper (Whatman International Ltd.; Maidstone, England).
(§2) Protein purification and analysis. Recombinant Ty1 RT (Wilhelm et al., supra, 2000) containing a cleavable N-terminal GST-tag was expressed in E. coli and purified first by affinity chromatography and then by ion exchange chromatography, as described for HIV-1 RT (Le Grice et al., Meth. Enzymol. 262: 130-44, 1995, which is incorporated herein by reference). The GST-tagged protein was eluted from a Glutathione Sepharose 4B™ gel (Amersham) gravity column with buffer (50 mM HEPES-KOH, pH 7.8, 200 mM KCl, 10% glycerol and 2 mM DTT) containing 30 mM reduced glutathione. 50 mM HEPES-KOH, pH 7.0 with 10% glycerol was added to the protein solution to lower the pH to 7.1 and the KCl concentration to 25 mM. The recombinant Ty1 RT was further purified over a Resource S™ (Amersham) cation-exchange column using a linear KCl gradient (25-500 mM). […]

Experiment [2] has as its system wild-type Ty1 RT. The following applies: wild-type RT versus D211N RT. The procedure: as §1, §2
The target in experiment [3] is T1, wild-type Ty1 RT. The arrangement: Recombinant Ty1 RT (Wilhelm et al., supra, 2000) was PCR amplified and subcloned into the BamH I and Xho I sites of pGEX-4T-3; GST (N); made in house; host or cells: E. coli (pGEX-4T-3). The following applies: purified recombinant Ty1 RT; Wilhelm et al. 2000; cited from earlier work.

For `[Mg+2]` [Mg^2+, MgCl2], the “Mg^2+-dependent activation relative to Mn^2+-dependent activation” value in experiment [1] was ~20 fold. For the same molecule, in experiment [2], the “Higher affinity of wild-type RT than D211N RT for the metal ion” value is 50 fold. Also, in experiment [3], the “Enzymatic activity with Mg^2+ relative to that with Mn^2+” value was 3 fold.
